Measured values taken from patent US8853392B2, “Benzamide mGluR5 positive allosteric modulators and methods of making and using same” (Vanderbilt University, priority 2007, dated 2014).

Protein sequences, listed by entry. Tags and fused reporters are not part of them. Residues count along the entry.
UniProt P31424, 21-1203 limits assumed: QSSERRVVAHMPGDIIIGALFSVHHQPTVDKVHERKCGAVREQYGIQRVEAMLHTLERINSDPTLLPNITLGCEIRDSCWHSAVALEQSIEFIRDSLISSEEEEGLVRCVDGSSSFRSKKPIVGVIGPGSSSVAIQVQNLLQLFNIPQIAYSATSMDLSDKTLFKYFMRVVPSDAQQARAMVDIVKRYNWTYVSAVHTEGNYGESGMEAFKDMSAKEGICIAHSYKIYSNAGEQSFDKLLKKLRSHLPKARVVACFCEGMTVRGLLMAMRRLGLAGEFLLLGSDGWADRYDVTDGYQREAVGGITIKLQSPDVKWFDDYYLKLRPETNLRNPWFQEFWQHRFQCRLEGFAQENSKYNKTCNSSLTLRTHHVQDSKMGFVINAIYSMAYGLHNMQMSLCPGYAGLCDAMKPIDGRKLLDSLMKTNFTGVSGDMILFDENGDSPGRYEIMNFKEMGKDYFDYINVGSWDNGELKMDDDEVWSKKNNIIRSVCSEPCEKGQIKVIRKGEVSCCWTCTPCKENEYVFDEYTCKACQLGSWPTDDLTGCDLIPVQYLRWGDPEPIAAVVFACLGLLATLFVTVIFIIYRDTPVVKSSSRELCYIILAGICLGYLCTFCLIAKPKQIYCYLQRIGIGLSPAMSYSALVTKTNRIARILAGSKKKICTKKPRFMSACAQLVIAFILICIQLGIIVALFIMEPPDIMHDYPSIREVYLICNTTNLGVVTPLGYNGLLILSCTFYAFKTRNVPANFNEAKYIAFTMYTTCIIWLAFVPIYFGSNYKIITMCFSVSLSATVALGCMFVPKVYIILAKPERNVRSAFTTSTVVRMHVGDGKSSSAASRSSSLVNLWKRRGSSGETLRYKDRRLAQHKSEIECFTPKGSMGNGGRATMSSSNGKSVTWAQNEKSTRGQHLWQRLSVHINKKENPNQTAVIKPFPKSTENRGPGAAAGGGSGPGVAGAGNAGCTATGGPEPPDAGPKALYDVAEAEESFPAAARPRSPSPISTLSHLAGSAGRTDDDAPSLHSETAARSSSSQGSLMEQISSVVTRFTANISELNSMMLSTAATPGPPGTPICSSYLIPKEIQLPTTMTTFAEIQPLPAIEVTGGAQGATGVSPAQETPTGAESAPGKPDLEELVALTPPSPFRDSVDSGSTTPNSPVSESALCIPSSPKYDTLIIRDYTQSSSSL

Biological target: rat mGluR5 (Rattus norvegicus, UniProt P31424)
Test: potentiation of mGluR5 response to glutamate, Ca2+ fluorescence (FDSS) in HEK cells transfected with rat mGluR5
Format: cell-based
Details: Table 1, EC50 for potentiating the mGluR5 receptor; unit inferred
Protocol: Human embryonic kidney (HEK) cells transfected with rat mGluR5 were plated in clear bottom assay plates for assay in a Functional Drug Screening System (FDSS). The cells were loaded with a Ca^2+-sensitive fluorescent dye (e.g., Fluo-4), and the plates were washed and placed in the FDSS instrument. After establishment of a fluorescence baseline for twelve seconds, the compounds of the present invention were added to the cells, and the response in cells was measured. Five minutes later, an mGluR5 agonist (e.g., glutamate, 3,5-dihydroxyphenylglycine, or quisqualate) was added to the cells, and the response of the cells was measured. […]
The above described assay operated in two modes. […] If a compound acted as a potentiator, an EC50 value for potentiation and a maximum extent of potentiation by the compound at this concentration of agonist was determined by non-linear curve fitting. In the second mode, several fixed concentrations of the present compounds were added to various wells on a plate, followed by a range of concentrations of agonist for each concentration of present compound; the EC50 values for the agonist at each concentration of compound were determined by non-linear curve fitting. […]

Row | Compound | EC50 [µM]
1 | CC(C)(C)CCNC(=O)c1ccc(-c2nc(-c3ccc(F)cc3)no2)cc1 | 0.423
2 | O=C(c1ccc(C#Cc2ccccc2)cc1)N1CCC(O)(c2ccc(Br)cc2)CC1 | 2.46
